Measured values taken from patent US5602102A, “Dipeptidyl peptidase-I inhibitors and uses thereof” (Board of Regents, The Univ. of TX System, priority 1992, dated 1997).

Amino acid sequences for entries named in this document (tags omitted). Residues count along the entry.
UniProt P53634, 395-463 limits assumed: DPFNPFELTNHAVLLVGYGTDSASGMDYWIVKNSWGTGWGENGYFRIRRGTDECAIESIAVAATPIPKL
UniProt P53634, 25-134 limits assumed: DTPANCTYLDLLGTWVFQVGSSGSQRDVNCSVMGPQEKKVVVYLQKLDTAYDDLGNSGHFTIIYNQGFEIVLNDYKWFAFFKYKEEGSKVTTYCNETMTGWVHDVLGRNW
UniProt P53634, 231-394 limits assumed: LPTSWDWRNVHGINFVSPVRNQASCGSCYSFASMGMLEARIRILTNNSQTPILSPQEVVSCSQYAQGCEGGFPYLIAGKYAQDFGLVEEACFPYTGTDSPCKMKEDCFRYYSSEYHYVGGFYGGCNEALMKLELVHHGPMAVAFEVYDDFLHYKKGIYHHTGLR

Target: human dipeptidyl peptidase-I (Homo sapiens, UniProt P53634)
Assay: Effect of protease inhibitors on DPPI activity (purified enzyme)
Assay type: biochemical
Parameters: Human DPPI is now established to constitute a 200,000 Da glycoprotein with 24,000 Da subunits; from tissue; host or cells: human cadaveric spleen
Conditions: inhibitor 1 mM, preincubated 15 min at 37° C.
Procedure: Note. Purified human dipeptidyl peptidaseI (0.4 μg) was preincubated
with each of the inhibitors at the stated concentration for 15 min at
37° C.. Each sample was diluted 3fold with assay buffer containing
substrate and incubated for an additional 20 min.

O=S(=O)(F)Cc1ccccc1 [PMSF, phenylmethylsulfonylfluoride]
Percentage control activity: 98%
